Several values for one entry are separate records, joined by “and”; a condition that tells them apart may be missing. Equal entries are not always repeated.
Molecular target: D(2) dopamine receptor (Oryctolagus cuniculus, UniProt G1T1Q0)

Amino acid sequences for entries named in this document (tags omitted).
UniProt G1T1Q0, whole entry: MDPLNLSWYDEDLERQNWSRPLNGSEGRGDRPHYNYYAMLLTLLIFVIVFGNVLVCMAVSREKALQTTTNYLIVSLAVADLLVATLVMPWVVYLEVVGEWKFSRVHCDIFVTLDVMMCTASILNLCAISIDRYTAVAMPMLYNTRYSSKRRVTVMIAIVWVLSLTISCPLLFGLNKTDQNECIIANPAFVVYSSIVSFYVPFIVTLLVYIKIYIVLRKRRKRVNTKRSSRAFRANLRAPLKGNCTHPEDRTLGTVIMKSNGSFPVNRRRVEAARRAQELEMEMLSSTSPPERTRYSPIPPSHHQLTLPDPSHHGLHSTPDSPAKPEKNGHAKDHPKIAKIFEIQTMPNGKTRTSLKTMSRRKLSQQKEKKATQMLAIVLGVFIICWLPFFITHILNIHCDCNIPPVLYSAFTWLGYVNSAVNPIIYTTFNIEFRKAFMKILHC

| Ki | Structure (SMILES) |
| --- | --- |
| 20 nM and 31 nM | CCN1CCC[C@H]1CNC(=O)c1cc(S(N)(=O)=O)ccc1OC [Sulpiride-S] |
| 300 nM | CCN1CCCC1CNC(=O)c1cc(S(N)(=O)=O)ccc1OC (configuration not stated) [N-[(1-ethylpyrrolidin-2-yl)methyl]-2-methoxy-5-sulfamoylbenzamide] |

Source: BindingDB's records for PubMed 6655559 (University of California, 1983)
